# pKi: −log10 of the molar value.
# By UniProt entry, the sequences of proteins in these tests, tags left out.
# UniProt Q60492, whole entry: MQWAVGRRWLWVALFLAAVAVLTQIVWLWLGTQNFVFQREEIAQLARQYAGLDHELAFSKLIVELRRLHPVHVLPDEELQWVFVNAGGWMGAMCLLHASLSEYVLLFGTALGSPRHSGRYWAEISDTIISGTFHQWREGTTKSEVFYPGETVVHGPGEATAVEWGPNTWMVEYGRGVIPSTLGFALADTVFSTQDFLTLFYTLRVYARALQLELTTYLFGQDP
# How the values were obtained:
# σ2 receptor = details: Figure 1 reference compounds and fluorescent ligands; cited from earlier work
# σ1 receptor [1] = molecular target: T1, σ1 receptor (Cavia porcellus, UniProt Q60492); experiment: σ1 receptor radioligand binding assay with (+)-[3H]pentazocine, guinea pig brain membranes; details: guinea pig brain membranes without cerebellum
# T1 construct: from tissue; host or cells: guinea pig brain without cerebellum (male Dunkin guinea pigs, Envigo)
# Protocol: All of the procedures for the binding assays were previously described. σ1 and σ2 receptor binding assays were carried out according to the literature.[25] […] Incubations were stopped by addition of 1 mL of ice-cold buffer [50 mM TRIS (pH 8.0)], and then the suspension was filtered through GF/B presoaked in 0.3% polyethylenimine (PEI) for at least 60 min prior to use. The filters were washed twice with 1 mL of ice-cold buffer. […] Incubations were stopped by addition of 1 mL of ice-cold buffer [50 mM TRIS (pH 8.0)], and then the suspension was filtered through GF/B presoaked in 0.5% polyethylenimine (PEI) for at least 60 min prior to use. The filters were washed twice with 1 mL of ice-cold buffer. […] Scatchard parameters (Kd and Bmax) and apparent inhibition constants (Ki) were determined by nonlinear curve fitting using GraphPad Prism (version 5.0).[64]
# σ1 receptor [2] = details: Figure 1 reference compounds and fluorescent ligands; cited from earlier work
smiles,measurement,setting,value
"COc1cccc2c1CCCC2CCCN1CCN(C2CCCCC2)CC1 (stereo not drawn) [PB28, 1-cyclohexyl-4-[3-(5-methoxy-1,2,3,4-tetrahydronaphthalen-1-yl)propyl]piperazine]",pKi,σ2 receptor,9.17
"CC(C)=CCN1CC[C@]2(C)c3cc(O)ccc3C[C@H]1[C@H]2C [(+)-[^3H]pentazocine, reference compound]",Bmax,σ1 receptor [1],500 fmol/mg of protein
Fc1ccc(-n2cc(CCCCN3CCC4(CC3)OCc3ccccc34)c3ccccc32)cc1 [siramesine],pKi,σ1 receptor [2],7.98

# — article PMC10041534, “Development of Fluorescent 4-[4-(3H-Spiro[isobenzofuran-1,4′-piperidin]-1′-yl)butyl]indolyl Derivatives as High-Affinity Probes to Enable the Study of σ Receptors via Fluorescence-Based Techniques” (Journal of Medicinal Chemistry, 2023)
